What is called IC50 is the concentration needed to halve the response being measured.

Chains of the proteins cited; added tags and fusions are not shown. Residues count along the entry.
UniProt Q7Z5P4, 20-300 limits assumed: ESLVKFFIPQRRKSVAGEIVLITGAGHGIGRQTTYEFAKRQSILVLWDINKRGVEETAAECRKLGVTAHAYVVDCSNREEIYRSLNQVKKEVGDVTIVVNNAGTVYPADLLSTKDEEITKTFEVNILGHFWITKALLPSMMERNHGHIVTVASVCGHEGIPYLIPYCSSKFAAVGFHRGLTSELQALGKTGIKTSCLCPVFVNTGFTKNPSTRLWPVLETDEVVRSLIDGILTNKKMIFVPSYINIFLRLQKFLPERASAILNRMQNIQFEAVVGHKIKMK

The target in the assay is Recombinant human HSD17B13 (Homo sapiens (Human), UniProt Q7Z5P4). Briefly: HSD17B13 rapid-fire mass spectrometry assay (RF/MS assay). Particulars: inhibition of HSD17B13; LTB4 10 μM, NAD+ 0.5 mM, RT 3 h; IC50 ranges A-E. From the text:
HSD17B13 rapid-fire mass spectrometry assay (RF/MS assay). Recombinant human HSD17B13 was expressed and purified from sf9 cells at Charles River Labs (Saffron Walden, UK). Leukotriene B4 (Catalog #71160-24-2) and 12-oxoleukotriene B4 (Catalog #20140) were purchased from Cayman Chemicals (Ann Arbor, Michigan.). NAD+ (Catalog #N8285), BSA (Catalog #A7030), DMSO (Catalog #D2650), and Tween-20 (Catalog #11332465001) were purchased from Sigma (St. Louis, MO). Formic acid (Catalog #28905) was from ThermoFisher Scientific and 384 deep well PP microplates (Catalog #784261) were from Greiner Bio-One. In a typical IC50 assay performed in a 384w PP microplate, test compounds (0-100 μM) were incubated with HSD17B13 (80 nM), LTB4 (10 μM), and NAD^+ (0.5 mM) in 10 μL assay buffer (20 mM Tris (pH 7.5), BSA (0.005%), and Tween-20 (0.01%)) at RT for 3 h. The assays were quenched by adding 20 μL of 0.15% aqueous formic acid and the plates were frozen at −80° C. RF/MS analysis was performed at PureHoney Technologies (Billerica, MA) on a RapidFire RF300 system (Agilent Technologies, Inc.) coupled to an API 4000 triple quadrupole mass spectrometer (Sciex) equipped with Agilent RapidFire cartridge type A (C4). The mobile phase was 0.09% formic acid and 0.01% trifluoracetic acid in water (Buffer A) and 0.09% formic acid and 0.01% trifluoracetic acid in 80% aqueous acetonitrile (Buffer B). The RapidFire method conditions were the following: 250 ms aspirate, 3000 ms load/desalt, 4000 ms elute, and 500 ms re-equilibrate. RF-MS/MS was performed in negative polarity (−4500 V), the source temperature was 650° C., and gas 1 and gas 2 settings for nitrogen were set to 50. The curtain gas and collision gas were also nitrogen and were set to 20 and 12, respectively. Leukotriene B4 (335.3) and 12-oxoLeukotriene B4 (333.3) SRM transitions were optimized with Discovery Quant software and extracted ion counts for these analytes were determined.
Data Analysis. HSD17B13 enzyme activity was measured as percent conversion of extracted ion counts and normalized to high and low controls to determine percent residual activity at various concentrations of test compounds. Data were fitted to normalized activity (variable slope) versus concentration fit in GraphPad Prism 7 to determine IC50. All experiments were run in duplicates.
By using above method, the inhibition of HSD17B13 was evaluated for the compounds of Formula (I). IC50 ranges are as follows: A=IC50<0.100 μM; B=0.100 μM<IC50<0.500 μM; C=0.500 μM<IC50<1 μM; D=1 μM<IC50<100 μM; E=IC50>100 μM
In the case of `COc1cc(C(=O)O)c(F)cc1NS(=O)(=O)c1csc(-c2ccc(-c3ccc(C(F)(F)C(F)(F)F)cc3)c(OC(C)C)c2F)n1`, the IC50 was less than 100 nM.

As to `COc1cc(C(=O)O)c(F)cc1NS(=O)(=O)c1csc(-c2ccc([C@H]3CC[C@@H](C(F)(F)F)CC3)c(OC)c2F)n1`, the IC50 is less than 100 nM. The same measure for `COc1cc(C(=O)O)c(F)cc1NS(=O)(=O)c1cnn(-c2ccc(-c3ccc(C45CC6CC(CC(C6)C4)C5)cc3)cc2)c1`: 500 to 1000 nM.

For `CC[C@H]1CC[C@H](c2ccc(-c3cccc(S(=O)(=O)Nc4ccc(C(=O)O)cc4OC)c3F)cc2)CC1`, the IC50 fell in the range of 100 to 500 nM. Consider `CN(c1ccc(C(=O)O)cc1N)S(=O)(=O)c1csc(-c2ccc(C3CCC(C)(C)CC3)cc2C(F)(F)F)n1`, for which the IC50 lay in the range of 1000 to 100000 nM. Consider `COc1cc(C(=O)O)c(F)cc1NS(=O)(=O)c1csc(-c2ccc(-c3ccc(C(F)(F)C(F)(F)F)cc3)c(OC)c2F)n1`, for which the IC50 is less than 100 nM.

The record behind these values is patent US12384753B2, “17-beta-hydroxysteroid dehydrogenase type 13 inhibitors and methods of use thereof” (Enanta Pharmaceuticals, Inc., priority 2021, dated 2025).
